# Measurements reported in US20210260106A1, “CHLORITE-CONTAINING COMPOSITIONS” (ClearCrescent Technologies, LLC, priority 2008, published 2021).
# Experiments:
# [1] = SC applied to section of subject's back, irritation; assay type: in vivo, human; conditions: 1.80% SC; observed at 15 minute and 40 minute intervals
# Protocol: 1.80% SC liquid was applied to a 1″ tall by 2.5″ wide section of subject's back and observed at 15 minute and 40 minute intervals.
# [2] = tested on: human cells in tissue culture
# [3] = preliminary testing
substance,measurement,setting,value
sodium chlorite,redness or irritation of back skin,[1],no sign of redness or report of irritation
same,Toxicity (human cells),"[2]; 0.5% sodium chlorite, listed as Sodium Chlorite",None
same,Toxicity (human cells),[2]; 2.0% sodium chlorite,marginally toxic
same,Toxicity (human cells),"[2]; 2.0% sodium chlorite, listed as Sodium Chlorite",Toxic
same,concentration tolerated in mucous membranes,[3],≤ 2%

# Like-named read-outs stand apart in the source and are kept apart here.
